Measured values published in PMC4438668, “Quantitative High-Throughput Identification of Drugs as Modulators of Human Constitutive Androstane Receptor” (Scientific Reports, 2015).

Molecular target: T1, human CAR (hCAR) (Homo sapiens, UniProt Q14994)
T1 sequence (Q14994 1-348 isoform Q14994-2): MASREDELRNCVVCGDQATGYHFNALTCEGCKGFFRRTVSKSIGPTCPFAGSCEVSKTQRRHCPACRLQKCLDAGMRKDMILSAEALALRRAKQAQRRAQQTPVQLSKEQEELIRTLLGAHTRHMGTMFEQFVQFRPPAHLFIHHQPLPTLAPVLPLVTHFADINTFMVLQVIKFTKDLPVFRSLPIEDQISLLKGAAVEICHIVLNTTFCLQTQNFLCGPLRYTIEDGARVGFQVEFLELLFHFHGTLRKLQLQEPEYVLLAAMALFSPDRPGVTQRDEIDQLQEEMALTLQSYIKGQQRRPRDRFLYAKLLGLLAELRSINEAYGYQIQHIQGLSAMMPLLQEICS
Experiment: hCAR luciferase reporter qHTS, antagonist mode (HepG2-CYP2B6-hCAR cells, CITCO co-treatment);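 further: stable HepG2 line carrying hCAR plus a CYP2B6 promoter (PBREM/XREM) luciferase reporter, 1536-well format, 24 h compound exposure at 37 °C, then luminescence read with ONE-Glo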
Details: follow-up cherry-pick, relative to PK11195 (100%)

CC(C)C[C@H](NC(=O)[C@H](Cc1ccccc1)NC(=O)c1cnccn1)B(O)O [Bortezomib]
Follow-up Confirmation Efficacy: -101%
